Measurements taken from patent US8906672B2, “Gradient injection for biosensing” (Flir Systems, Inc., priority 2007, dated 2014).

Molecular target: anti-IL-2 antibody
Assay: SPR biosensor sigmoidal gradient injection of IL-2 over a surface coated with anti-IL-2 antibody, kinetic model fit
Type: binding
Conditions: single sigmoidal gradient injection, 125 μL at 25 μL/min
Source text: An example of one type of algorithm for determining kinetic constants is the conventional two-compartment interaction model given by the following set of differential equations. These equations are solved by numerical integration, or by finding an exact analytical solution, and then applying non-linear curve fitting to find the optimum parameter values. A=Conc A0=0 dA/dt=kt*(Conc−A)−(ka*A*B−kd*AB) B0=Rmax dB/dt=−(ka*A*B−kd*AB) AB0=0 dAB/dt=(ka*A*B−kd*AB) Total response: AB+RI where A=analyte concentration at surface
Next will be described the application of the invention as applied to kinetic analysis of the interaction of IL-2 with anti-IL2 antibody immobilized on the sensing surface. A sucrose gradient is prepared and injected, which gradient is of known refractive index using the same gradient preparation and injection parameters as are to be used for the actual analyte gradient injection. The optical biosensor responds to the changing bulk refractive index along the gradient giving a typical sigmoidal response curve 30 as shown in FIG. 5. The sigmoidal model [i.e. G=Rhi−((Rhi−Rlo)/(1+(t/A)^B))] is fitted to this curve 32 as shown by curve 34 in FIG. 7. All parameters are obtained from the model fit giving Rhi=1.016, Rlo=−0.2271, A=77.75 and B=0.009097. Thus the function G now defines the exact gradient profile for the gradient injection and is used to define the concentration of analyte in an analyte gradient prepared and injected in the same way. The two-compartment model as defined earlier is then fitted. Alternatively a simple model may be fitted as mass transport limitation is not as significant when a non-steady state concentration of analyte is present at the sensing surface. Therefore the simple model can be written as follows. […]
The experimental binding response curve shown in FIG. 8 is for the injection of a sigmoidal gradient of interleukin 2 (IL-2) over a surface coated with anti-IL-2 antibody (i.e. ligand). […] These values are in agreement with interaction constants determined by conventional kinetic analysis employing multiple fixed concentration injections.

## interleukin 2 [IL-2]
KD = kd/ka
  KD (dissociation affinity constant = kd/ka): 5 nM
Dissociation about 400 seconds, fitted model
  kd (dissociation rate constant): 0.0016 s⁻¹
Immobilized anti-IL-2 antibody as ligand, fitted model
  ka (association rate constant): 320000 M⁻¹ s⁻¹
